From US10745384B2, “Indazole derivatives as αv integrin antagonists” (BRISTOL-MYERS SQUIBB COMPANY, priority 2016, dated 2020)

The chains behind the UniProt entries cited, without tags or fusion partners. Residues count along the entry.
UniProt P05106, 27-718 limits assumed: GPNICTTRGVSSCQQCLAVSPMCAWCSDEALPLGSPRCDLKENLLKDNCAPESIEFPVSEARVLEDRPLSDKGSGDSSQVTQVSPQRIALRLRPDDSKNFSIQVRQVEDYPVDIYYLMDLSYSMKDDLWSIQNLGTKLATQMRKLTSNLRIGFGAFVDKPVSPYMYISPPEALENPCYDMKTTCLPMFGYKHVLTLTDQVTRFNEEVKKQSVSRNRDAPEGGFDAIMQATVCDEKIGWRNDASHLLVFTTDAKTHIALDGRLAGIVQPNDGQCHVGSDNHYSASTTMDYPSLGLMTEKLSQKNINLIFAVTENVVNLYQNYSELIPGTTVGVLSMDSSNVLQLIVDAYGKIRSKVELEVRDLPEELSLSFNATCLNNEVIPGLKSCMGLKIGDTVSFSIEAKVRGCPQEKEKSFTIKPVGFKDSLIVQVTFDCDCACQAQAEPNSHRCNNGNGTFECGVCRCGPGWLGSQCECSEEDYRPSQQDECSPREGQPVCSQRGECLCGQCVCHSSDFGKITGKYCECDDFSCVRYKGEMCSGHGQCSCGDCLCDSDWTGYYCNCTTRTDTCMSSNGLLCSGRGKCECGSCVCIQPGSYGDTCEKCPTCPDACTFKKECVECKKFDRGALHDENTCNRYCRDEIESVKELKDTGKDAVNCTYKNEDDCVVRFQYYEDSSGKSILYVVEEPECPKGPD
UniProt P06756, 31-992 limits assumed: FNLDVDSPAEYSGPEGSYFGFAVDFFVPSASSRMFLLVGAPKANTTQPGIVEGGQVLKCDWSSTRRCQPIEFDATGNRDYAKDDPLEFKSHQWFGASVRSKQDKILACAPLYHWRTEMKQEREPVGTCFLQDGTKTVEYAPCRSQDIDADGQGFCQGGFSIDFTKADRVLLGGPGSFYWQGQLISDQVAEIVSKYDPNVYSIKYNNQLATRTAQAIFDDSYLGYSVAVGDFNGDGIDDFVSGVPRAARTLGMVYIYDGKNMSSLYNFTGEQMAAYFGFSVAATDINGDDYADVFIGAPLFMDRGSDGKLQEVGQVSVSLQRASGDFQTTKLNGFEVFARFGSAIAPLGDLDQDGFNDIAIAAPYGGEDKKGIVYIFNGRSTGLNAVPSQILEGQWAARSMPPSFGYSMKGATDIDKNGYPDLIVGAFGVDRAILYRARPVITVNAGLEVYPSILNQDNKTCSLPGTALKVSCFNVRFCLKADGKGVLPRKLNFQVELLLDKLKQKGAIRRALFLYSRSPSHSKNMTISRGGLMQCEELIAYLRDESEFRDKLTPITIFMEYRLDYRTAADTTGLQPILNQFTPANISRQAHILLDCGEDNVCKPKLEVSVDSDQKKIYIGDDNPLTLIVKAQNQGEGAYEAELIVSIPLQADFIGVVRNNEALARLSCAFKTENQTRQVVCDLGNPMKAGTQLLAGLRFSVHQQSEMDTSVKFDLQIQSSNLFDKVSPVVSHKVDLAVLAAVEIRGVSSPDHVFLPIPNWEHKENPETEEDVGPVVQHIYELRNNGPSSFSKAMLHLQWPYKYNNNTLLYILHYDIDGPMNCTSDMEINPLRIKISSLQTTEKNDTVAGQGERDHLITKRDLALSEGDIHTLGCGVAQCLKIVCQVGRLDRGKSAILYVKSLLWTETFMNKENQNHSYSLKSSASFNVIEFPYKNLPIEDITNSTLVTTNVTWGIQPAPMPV
UniProt P18564, 22-707 limits assumed: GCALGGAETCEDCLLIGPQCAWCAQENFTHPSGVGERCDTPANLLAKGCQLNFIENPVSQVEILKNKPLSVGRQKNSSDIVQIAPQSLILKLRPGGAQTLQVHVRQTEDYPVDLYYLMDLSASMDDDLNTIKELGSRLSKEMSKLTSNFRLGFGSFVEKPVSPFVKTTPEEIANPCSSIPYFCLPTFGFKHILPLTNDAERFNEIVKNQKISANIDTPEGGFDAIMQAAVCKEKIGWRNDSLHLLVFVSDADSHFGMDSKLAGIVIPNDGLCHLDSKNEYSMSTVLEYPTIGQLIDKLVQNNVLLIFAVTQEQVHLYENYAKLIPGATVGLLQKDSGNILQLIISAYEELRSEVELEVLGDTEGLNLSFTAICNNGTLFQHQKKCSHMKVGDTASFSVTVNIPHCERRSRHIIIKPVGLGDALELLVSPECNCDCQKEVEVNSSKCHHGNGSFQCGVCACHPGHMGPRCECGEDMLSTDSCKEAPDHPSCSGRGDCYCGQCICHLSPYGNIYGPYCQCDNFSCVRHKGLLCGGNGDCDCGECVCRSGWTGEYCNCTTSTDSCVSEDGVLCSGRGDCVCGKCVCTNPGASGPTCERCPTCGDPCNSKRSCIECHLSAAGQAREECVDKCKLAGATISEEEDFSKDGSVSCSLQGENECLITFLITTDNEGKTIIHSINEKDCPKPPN
UniProt P26012, 43-684 limits assumed: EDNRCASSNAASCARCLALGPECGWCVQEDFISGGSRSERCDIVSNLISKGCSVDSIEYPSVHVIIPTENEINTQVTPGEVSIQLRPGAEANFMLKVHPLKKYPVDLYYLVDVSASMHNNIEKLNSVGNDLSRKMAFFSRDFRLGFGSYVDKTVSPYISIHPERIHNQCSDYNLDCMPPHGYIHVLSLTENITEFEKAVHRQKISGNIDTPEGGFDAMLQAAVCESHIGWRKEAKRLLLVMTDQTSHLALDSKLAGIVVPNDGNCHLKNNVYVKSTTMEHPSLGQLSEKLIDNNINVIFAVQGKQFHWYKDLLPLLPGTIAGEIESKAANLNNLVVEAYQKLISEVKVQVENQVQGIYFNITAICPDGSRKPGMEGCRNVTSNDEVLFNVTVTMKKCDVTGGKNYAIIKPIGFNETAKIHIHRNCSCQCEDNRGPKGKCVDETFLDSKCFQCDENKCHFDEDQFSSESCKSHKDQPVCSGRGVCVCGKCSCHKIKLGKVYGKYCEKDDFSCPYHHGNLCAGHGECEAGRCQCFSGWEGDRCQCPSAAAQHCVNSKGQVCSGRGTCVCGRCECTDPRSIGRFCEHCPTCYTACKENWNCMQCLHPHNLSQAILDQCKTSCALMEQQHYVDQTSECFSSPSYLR
UniProt P18084, 24-719 limits assumed: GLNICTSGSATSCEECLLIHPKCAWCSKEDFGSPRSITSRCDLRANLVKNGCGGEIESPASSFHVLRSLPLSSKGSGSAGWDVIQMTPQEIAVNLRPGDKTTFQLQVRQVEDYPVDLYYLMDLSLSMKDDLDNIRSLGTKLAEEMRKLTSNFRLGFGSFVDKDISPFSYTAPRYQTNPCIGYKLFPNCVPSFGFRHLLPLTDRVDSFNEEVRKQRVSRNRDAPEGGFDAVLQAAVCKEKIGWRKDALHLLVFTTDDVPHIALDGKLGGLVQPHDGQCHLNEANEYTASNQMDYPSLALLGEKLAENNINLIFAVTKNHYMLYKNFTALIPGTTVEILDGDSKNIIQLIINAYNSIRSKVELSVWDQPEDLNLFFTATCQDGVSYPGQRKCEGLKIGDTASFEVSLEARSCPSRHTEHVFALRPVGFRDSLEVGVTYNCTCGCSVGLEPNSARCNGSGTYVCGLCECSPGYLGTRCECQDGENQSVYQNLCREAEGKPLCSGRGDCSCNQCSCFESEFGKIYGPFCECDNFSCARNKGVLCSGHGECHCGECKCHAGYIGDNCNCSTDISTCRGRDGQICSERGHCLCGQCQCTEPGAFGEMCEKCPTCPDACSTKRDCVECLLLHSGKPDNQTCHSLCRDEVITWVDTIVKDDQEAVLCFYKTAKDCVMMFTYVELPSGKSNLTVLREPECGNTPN
UniProt P05556, 21-728 limits assumed: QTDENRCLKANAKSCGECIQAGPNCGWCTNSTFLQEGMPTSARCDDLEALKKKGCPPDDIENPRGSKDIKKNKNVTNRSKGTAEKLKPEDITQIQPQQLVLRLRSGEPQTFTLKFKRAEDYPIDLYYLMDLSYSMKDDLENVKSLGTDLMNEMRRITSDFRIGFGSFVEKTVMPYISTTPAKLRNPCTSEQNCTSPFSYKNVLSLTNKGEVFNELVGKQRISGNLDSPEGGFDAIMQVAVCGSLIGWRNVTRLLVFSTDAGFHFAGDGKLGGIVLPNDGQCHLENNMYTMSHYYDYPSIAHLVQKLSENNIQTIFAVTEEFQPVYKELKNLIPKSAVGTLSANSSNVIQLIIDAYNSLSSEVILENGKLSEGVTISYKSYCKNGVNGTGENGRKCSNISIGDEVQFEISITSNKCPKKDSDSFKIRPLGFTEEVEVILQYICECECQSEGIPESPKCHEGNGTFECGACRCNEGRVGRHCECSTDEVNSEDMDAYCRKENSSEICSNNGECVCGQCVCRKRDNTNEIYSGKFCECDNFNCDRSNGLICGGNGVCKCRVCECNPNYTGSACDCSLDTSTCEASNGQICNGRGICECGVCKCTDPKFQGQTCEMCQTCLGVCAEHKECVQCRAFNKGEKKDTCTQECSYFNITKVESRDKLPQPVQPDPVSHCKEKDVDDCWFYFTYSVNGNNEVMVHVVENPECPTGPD

Assays:
human αVβ3 = human αVβ3 (Homo sapiens, UniProt P05106+P06756); test: human αVβ3 HTRF binding assay; details: read-out: Human αVβ3 IC50
Method: (§1) All binding assays used the HTRF (homogeneous time resolved fluorescence) technology from Cisbio International, therefore all assays are described as HTRF binding assays. The assay results for the Examples are listed above together with the characterization data. The HTRF binding assays are established for the following integrins: human αVβ6, human αVβ1, human αVβ3, human αVβ5, and human αVβ8. All assays used the following assay buffer: 20 mM Tris, pH 7.4, 1 mM MgCl2, 1 mM MnCl2, 0.01% Tween 20, and 0.01% BSA. Alternatively, a SPA-based assay was used for evaluation of receptor binding.
(§2) The following describes the components and a representative procedure for the human αVβ6 HTRF binding assay: Recombinant human αVβ6 Integrin (R & D systems, 3817-AV) was biotinylated. Biotinylated human αVβ6 Integrin was added to assay vessel at a final concentration of 1.25 nM. FITC-conjugated fibronectin (Cytoskeleton, FNR02) was then added at the final concentration of 5 nM. The mixture was centrifuged at 600 rpm for three minutes using Thermo Fisher Heraeus Multifuge X3 centrifuge and then incubated at room temperature for an hour. […] The resulting mixture was centrifuged at 600 rpm for three minutes using Thermo Fisher Heraeus Multifuge X3 centrifuge and then incubated at room temperature overnight in dark before reading HTRF signals. […]

human αVβ6 = human αVβ6 (Homo sapiens, UniProt P06756+P18564); test: human αVβ6 HTRF binding assay; details: read-out: Human αVβ6 IC50, recombinant human αVβ6 integrin, FITC-conjugated fibronectin
Method: as §1, §2

human αVβ8 = human αVβ8 (Homo sapiens, UniProt P06756+P26012); test: human αVβ8 HTRF binding assay; details: read-out: Human αVβ8 IC50
Method: as §1, §2

human αVβ5 = human αVβ5 (Homo sapiens, UniProt P06756+P18084); test: human αVβ5 HTRF binding assay; details: read-out: Human αVβ5 IC50
Method: as §1, §2

human αVβ1 = human αVβ1 (Homo sapiens, UniProt P05556+P06756); test: human αVβ1 HTRF binding assay; details: read-out: Human αVβ1 IC50
Method: as §1
The following describes the components and a representative procedure for the human αVβ6 HTRF binding assay: Recombinant human αVβ6 Integrin (R & D systems, 3817-AV) was biotinylated. […] The resulting mixture was centrifuged at 600 rpm for three minutes using Thermo Fisher Heraeus Multifuge X3 centrifuge and then incubated at room temperature overnight in dark before reading HTRF signals.
The SPA-based assay was carried out according to the protocol and procedures similar to the ones described in the following reference with appropriate modifications to agents and ligands which are readily understood by one skilled in the art: Pachter J A, Zhang R, Mayer-Ezell R., “Scintillation proximity assay to measure binding of soluble fibronectin to antibody-captured αVβ1 integrin” Anal Biochem. 1995 Sep. […]

Compound: COc1ccc([C@H](CC(=O)O)n2cc3ccc(OCCc4ccc5c(n4)NCCC5)cc3n2)cn1
- pIC50 (human αVβ3): 8.62
- pIC50 (human αVβ6): 8.92
- pIC50 (human αVβ8): 5.64
- pIC50 (human αVβ5): 9.00
- pIC50 (human αVβ1): 5.64

pIC50: −log10 of the molar value.
